The source made the active and inactive calls. The rule behind the calls is not given here.
Target: Fatty-acid amide hydrolase 1 (Homo sapiens, UniProt O00519)
Test: Reversible inhibition of MBP-fused human recombinant FAAH with truncated N-terminal transmembrane domain expressed in Escherichia coli T7 assessed as enzyme activity recovery rate using D-AMC substrate measured 24 to 144 hrs after exhaustive dialysis by fluorescence based assay

The chains behind the UniProt entries cited, without tags or fusion partners.
UniProt O00519, whole entry: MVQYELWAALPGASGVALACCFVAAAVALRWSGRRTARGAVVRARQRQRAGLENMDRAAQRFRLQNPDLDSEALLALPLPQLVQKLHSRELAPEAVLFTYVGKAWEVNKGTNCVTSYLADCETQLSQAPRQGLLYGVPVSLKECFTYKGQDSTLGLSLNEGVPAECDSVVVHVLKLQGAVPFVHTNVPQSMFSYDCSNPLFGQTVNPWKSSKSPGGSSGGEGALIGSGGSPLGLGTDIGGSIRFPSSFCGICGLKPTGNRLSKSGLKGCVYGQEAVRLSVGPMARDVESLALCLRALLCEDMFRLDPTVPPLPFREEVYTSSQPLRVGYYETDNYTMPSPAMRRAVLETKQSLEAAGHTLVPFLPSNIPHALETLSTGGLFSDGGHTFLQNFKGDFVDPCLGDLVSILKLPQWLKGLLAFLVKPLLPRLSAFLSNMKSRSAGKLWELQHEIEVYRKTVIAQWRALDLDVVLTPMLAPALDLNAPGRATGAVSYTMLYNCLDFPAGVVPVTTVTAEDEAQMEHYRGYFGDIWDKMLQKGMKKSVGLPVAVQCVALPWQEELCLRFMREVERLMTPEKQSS

inhibition: Active
Structure (SMILES): O=C(Nc1ccccc1)N1CCN(c2nc(-c3ccccc3)ns2)CC1
